Reference: patent US9303023B2, “Pyrazole and imidazole derivatives useful as orexin antagonists” (ACTELION PHARMACEUTICALS LTD., priority 2011, dated 2016)

Chains of the proteins cited; added tags and fusions are not shown.
UniProt O43614, whole entry: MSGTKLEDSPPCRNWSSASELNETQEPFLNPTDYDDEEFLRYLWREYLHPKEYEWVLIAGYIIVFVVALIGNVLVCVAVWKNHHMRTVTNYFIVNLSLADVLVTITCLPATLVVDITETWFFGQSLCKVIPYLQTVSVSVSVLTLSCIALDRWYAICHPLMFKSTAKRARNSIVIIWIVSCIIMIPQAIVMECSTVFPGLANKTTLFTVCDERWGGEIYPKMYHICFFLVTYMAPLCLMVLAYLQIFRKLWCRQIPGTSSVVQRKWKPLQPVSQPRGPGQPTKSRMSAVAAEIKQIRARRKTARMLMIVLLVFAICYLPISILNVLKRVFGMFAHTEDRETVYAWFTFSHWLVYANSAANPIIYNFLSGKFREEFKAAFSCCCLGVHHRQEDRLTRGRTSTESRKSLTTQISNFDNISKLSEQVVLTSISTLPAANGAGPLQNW

Biological target: human orexin-2 receptor (Homo sapiens (Human), UniProt O43614)
Test: In vitro intracellular calcium measurements (FLIPR), antagonism of orexin-A response, OX2
Assay type: cell-based
Conditions: CHO cells expressing human orexin-2 receptor; 3 nM orexin-A; compound incubation time 120 min

Structure (SMILES) | IC50 [nM]
COc1cc(OC)nc(N2CCCC2Cn2cc(NC(=O)c3ncoc3-c3cccc(C)c3)cn2)n1 (racemic) [Example 141, rac-N-(1-((1-(4,6-dimethoxypyrimidin-2-yl)pyrrolidin-2-yl)methyl)-1H-pyrazol-4-yl)-5-(m-tolyl)oxazole-4-carboxamide] | 320
Cc1cccc(-c2ocnc2C(=O)Nc2cnn(CCn3c(C)nc4ccccc43)c2)c1 [Example 4, 5-m-Tolyl-oxazole-4-carboxylic acid {1-[2-(2-methyl-benzoimidazol-1-yl)-ethyl]-1H-pyrazol-4-yl}-amide] | 176
COc1cc(OC)nc(OCCn2cc(NC(=O)c3ncoc3-c3cccc(N(C)C)c3)cn2)n1 [Example 11, 5-(3-Dimethylamino-phenyl)-oxazole-4-carboxylic acid {1-[2-(4,6-dimethoxy-pyrimidin-2-yloxy)-ethyl]-1H-pyrazol-4-yl}-amide] | 154
Cc1cccc(-c2ocnc2C(=O)Nc2cnn(CCCN3CCc4ccccc43)c2)c1 [Example 13, 5-m-Tolyl-oxazole-4-carboxylic acid {1-[3-(2,3-dihydro-indol-1-yl)-propyl]-1H-pyrazol-4-yl}-amide] | 502
Cc1cccc(-c2ocnc2C(=O)Nc2cnn(CCNc3cc(F)ccn3)c2)c1 [Example 14, 5-m-Tolyl-oxazole-4-carboxylic acid {1-[2-(4-fluoro-pyridin-2-ylamino)-ethyl]-1H-pyrazol-4-yl}-amide] | 379
COc1ccnc(NCCn2cc(NC(=O)c3ncoc3-c3cccc(C)c3)cn2)c1 [Example 15, 5-m-Tolyl-oxazole-4-carboxylic acid {1-[2-(4-methoxy-pyridin-2-ylamino)-ethyl]-1H-pyrazol-4-yl}-amide] | 254
COc1cc(OC)nc(NCCn2cc(NC(=O)c3ncoc3-c3cccc(N4CCCC4)c3)cn2)n1 [Example 17, 5-(3-Pyrrolidin-1-yl-phenyl)-oxazole-4-carboxylic acid {1-[2-(4,6-dimethoxy-pyrimidin-2-ylamino)-ethyl]-1H-pyrazol-4-yl}-amide] | 201
COc1cc(OC)nc(NCCn2cc(NC(=O)c3ncoc3-c3cccc(N4CCOCC4)c3)cn2)n1 [Example 18, 5-(3-Morpholin-4-yl-phenyl)-oxazole-4-carboxylic acid {1-[2-(4,6-dimethoxy-pyrimidin-2-ylamino)-ethyl]-1H-pyrazol-4-yl}-amide] | 134
COc1cnc(NCCn2cc(NC(=O)c3ncoc3-c3cccc(C)c3)cn2)nc1OC [Example 20, 5-m-Tolyl-oxazole-4-carboxylic acid {1-[2-(4,5-dimethoxy-pyrimidin-2-ylamino)-ethyl]-1H-pyrazol-4-yl}-amide] | 870
COc1ccc2c(c1)CCN2CCCn1cc(NC(=O)c2ncoc2-c2cccc(C)c2)cn1 [Example 21, 5-m-Tolyl-oxazole-4-carboxylic acid {1-[3-(5-methoxy-2,3-dihydro-indol-1-yl)-propyl]-1H-pyrazol-4-yl}-amide] | 1830
COc1ccc2c(c1)N(CCCn1cc(NC(=O)c3ncoc3-c3cccc(C)c3)cn1)CC2 [Example 22, 5-m-Tolyl-oxazole-4-carboxylic acid {1-[3-(6-methoxy-2,3-dihydro-indol-1-yl)-propyl]-1H-pyrazol-4-yl}-amide] | 247
COc1cc(OC)nc(NCCn2cc(NC(=O)c3ncoc3-c3ccncn3)cn2)n1 [Example 23, 5-Pyrimidin-4-yl-oxazole-4-carboxylic acid {1-[2-(4,6-dimethoxy-pyrimidin-2-ylamino)-ethyl]-1H-pyrazol-4-yl}-amide] | 9020
COc1ccc2[nH]cc(CCn3cc(NC(=O)c4ncoc4-c4ccc(C)c(C)c4)cn3)c2c1 [Example 24, 5-(3,4-Dimethyl-phenyl)-oxazole-4-carboxylic acid {1-[2-(5-methoxy-1H-indol-3-yl)-ethyl]-1H-pyrazol-4-yl}-amide] | 51
COc1ccc2[nH]cc(CCn3cc(NC(=O)c4ncoc4-c4ccc(C)c(OC)c4)cn3)c2c1 [Example 25, 5-(3-Methoxy-4-methyl-phenyl)-oxazole-4-carboxylic acid {1-[2-(5-methoxy-1H-indol-3-yl)-ethyl]-1H-pyrazol-4-yl}-amide] | 146
COc1ccc(-c2ocnc2C(=O)Nc2cnn(CCc3c[nH]c4ccc(OC)cc34)c2)cc1 [Example 28, 5-(4-Methoxy-phenyl)-oxazole-4-carboxylic acid {1-[2-(5-methoxy-1H-indol-3-yl)-ethyl]-1H-pyrazol-4-yl}-amide] | 35
COc1ccc2[nH]cc(CCn3cc(NC(=O)c4ncsc4-c4cccc(C)c4)cn3)c2c1 [Example 30, 5-m-Tolyl-thiazole-4-carboxylic acid {1-[2-(5-methoxy-1H-indol-3-yl)-ethyl]-1H-pyrazol-4-yl}-amide] | 30
COc1cc2ccn(CCn3cc(NC(=O)c4ncoc4-c4ccc(C)c(C)c4)cn3)c2cc1OC [Example 31, 5-(3,4-Dimethyl-phenyl)-oxazole-4-carboxylic acid {1-[2-(5,6-dimethoxy-indol-1-yl)-ethyl]-1H-pyrazol-4-yl}-amide] | 24
COc1cc(-c2ocnc2C(=O)Nc2cnn(CCn3ccc4cc(OC)c(OC)cc43)c2)ccc1C [Example 32, 5-(3-Methoxy-4-methyl-phenyl)-oxazole-4-carboxylic acid {1-[2-(5,6-dimethoxy-indol-1-yl)-ethyl]-1H-pyrazol-4-yl}-amide] | 110
COc1cc2ccn(CCn3cc(NC(=O)c4ncoc4-c4cccc(F)c4)cn3)c2cc1OC [Example 33, 5-(3-Fluoro-phenyl)-oxazole-4-carboxylic acid {1-[2-(5,6-dimethoxy indol-1-yl)-ethyl]-1H-pyrazol-4-yl}-amide] | 146
COc1ccc(-c2ocnc2C(=O)Nc2cnn(CCn3ccc4cc(OC)c(OC)cc43)c2)cc1 [Example 35, 5-(4-Methoxy-phenyl)-oxazole-4-carboxylic acid {1-[2-(5,6-dimethoxy-indol-1-yl)-ethyl]-1H-pyrazol-4-yl}-amide] | 233

Same assay, conditions: CHO cells expressing human orexin-2 receptor; 3 nM orexin-A; compound incubation time of 10 min (#)

Structure (SMILES) | IC50 [nM]
Cc1cccc(-c2ocnc2C(=O)Nc2cnn(CCc3cccc(F)c3)c2)c1 [Example 2, 5-m-Tolyl-oxazole-4-carboxylic acid {1-[2-(3-fluoro-phenyl)-ethyl]-1H-pyrazol-4-yl}-amide] | 1780
Cc1cccc(-c2ocnc2C(=O)Nc2cnn(CCNc3ccc(F)cn3)c2)c1 [Example 5, 5-m-Tolyl-oxazole-4-carboxylic acid {1-[2-(5-fluoro-pyridin-2-ylamino)-ethyl]-1H-pyrazol-4-yl}-amide] | 471
Cc1ccc(NCCn2cc(NC(=O)c3ncoc3-c3cccc(C)c3)cn2)nc1 [Example 6, 5-m-Tolyl-oxazole-4-carboxylic acid {1-[2-(5-methyl-pyridin-2-ylamino)-ethyl]-1H-pyrazol-4-yl}-amide] | 1040
COc1cccc(OCCn2cc(NC(=O)c3ncoc3-c3cccc(C)c3)cn2)c1 [Example 8, 5-m-Tolyl-oxazole-4-carboxylic acid {1-[2-(3-methoxy-phenoxy)-ethyl]-1H-pyrazol-4-yl}-amide] | 514
COc1cc(OC)nc(OCCn2cc(NC(=O)c3ncoc3-c3cccc(F)c3)cn2)n1 [Example 10, 5-(3-Fluoro-phenyl)-oxazole-4-carboxylic acid {1-[2-(4,6-dimethoxy-pyrimidin-2-yloxy)-ethyl]-1H-pyrazol-4-yl}-amide] | 53
